Measured values published in US12448375B2, “Kinase inhibitors for the treatment of neurodegenerative diseases” (Ohio State Innovation Foundation, priority 2019, dated 2025).

Protein sequences, listed by entry. Tags and fused reporters are not part of them.
UniProt P53779, whole entry: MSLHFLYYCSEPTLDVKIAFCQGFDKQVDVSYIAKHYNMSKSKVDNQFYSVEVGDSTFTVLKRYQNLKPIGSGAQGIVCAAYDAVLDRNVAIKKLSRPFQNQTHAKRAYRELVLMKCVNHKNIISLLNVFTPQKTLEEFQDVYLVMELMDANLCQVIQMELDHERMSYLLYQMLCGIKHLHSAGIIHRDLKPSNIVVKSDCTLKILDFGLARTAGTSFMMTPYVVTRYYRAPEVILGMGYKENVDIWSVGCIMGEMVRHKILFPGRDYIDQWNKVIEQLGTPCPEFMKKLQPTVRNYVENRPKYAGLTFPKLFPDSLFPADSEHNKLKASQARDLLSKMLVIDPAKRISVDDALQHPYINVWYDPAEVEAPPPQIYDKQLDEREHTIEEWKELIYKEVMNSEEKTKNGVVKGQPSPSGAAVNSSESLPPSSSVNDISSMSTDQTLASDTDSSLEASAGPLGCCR
UniProt P45983, whole entry: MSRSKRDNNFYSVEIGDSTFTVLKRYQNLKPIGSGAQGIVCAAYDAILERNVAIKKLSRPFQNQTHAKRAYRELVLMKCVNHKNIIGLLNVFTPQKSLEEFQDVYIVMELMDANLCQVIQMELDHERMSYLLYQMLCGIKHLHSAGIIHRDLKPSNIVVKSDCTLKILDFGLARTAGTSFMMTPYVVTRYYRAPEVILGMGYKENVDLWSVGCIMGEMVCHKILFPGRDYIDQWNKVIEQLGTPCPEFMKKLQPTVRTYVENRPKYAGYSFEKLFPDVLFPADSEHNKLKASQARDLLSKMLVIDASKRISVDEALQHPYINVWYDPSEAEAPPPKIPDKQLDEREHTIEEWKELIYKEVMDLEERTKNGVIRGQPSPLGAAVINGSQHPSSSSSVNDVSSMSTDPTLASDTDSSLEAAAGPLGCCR
UniProt Q16539, whole entry: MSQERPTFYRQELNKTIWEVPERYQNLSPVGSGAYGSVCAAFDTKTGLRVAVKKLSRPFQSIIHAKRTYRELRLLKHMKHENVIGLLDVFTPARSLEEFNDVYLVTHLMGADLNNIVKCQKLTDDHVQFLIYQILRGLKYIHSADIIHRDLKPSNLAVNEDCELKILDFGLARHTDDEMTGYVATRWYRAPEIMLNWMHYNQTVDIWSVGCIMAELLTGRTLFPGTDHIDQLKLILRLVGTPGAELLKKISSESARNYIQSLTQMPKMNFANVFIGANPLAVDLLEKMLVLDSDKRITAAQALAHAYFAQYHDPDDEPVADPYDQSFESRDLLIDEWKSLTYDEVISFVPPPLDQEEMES

Assays:
JNK3 = JNK3 (Homo sapiens, UniProt P53779); assay: HotSpot Kinase Assay (Reaction Biology Corp.), anti-JNK3 activity; settings: read-out: JNK3; HotSpot radiometric assay, 33P-ATP
JNK1 = JNK1 (Homo sapiens, UniProt P45983); assay: HotSpot Kinase Assay, JNK1; settings: read-out: JNK1; HotSpot radiometric assay, 33P-ATP
p38a = p38a (Homo sapiens, UniProt Q16539); assay: HotSpot Kinase Assay, P38a; settings: read-out: p38a; HotSpot radiometric assay, 33P-ATP

With `CNC(=O)c1cc(-n2ncc3cc(Nc4ccccc4Cl)c(OC)cc32)cs1` the IC50 (JNK3) was < 0.2 µM, the IC50 (JNK1) was > 1 µM and the IC50 (p38a) was 0.2 to 1 µM.
